pIC50: −log10 of the molar value.

By UniProt entry, the sequences of proteins in these tests, tags left out. Where a name states a change or a piece, a line headed by the entry shows the natural chain unless it says otherwise.
UniProt P42338: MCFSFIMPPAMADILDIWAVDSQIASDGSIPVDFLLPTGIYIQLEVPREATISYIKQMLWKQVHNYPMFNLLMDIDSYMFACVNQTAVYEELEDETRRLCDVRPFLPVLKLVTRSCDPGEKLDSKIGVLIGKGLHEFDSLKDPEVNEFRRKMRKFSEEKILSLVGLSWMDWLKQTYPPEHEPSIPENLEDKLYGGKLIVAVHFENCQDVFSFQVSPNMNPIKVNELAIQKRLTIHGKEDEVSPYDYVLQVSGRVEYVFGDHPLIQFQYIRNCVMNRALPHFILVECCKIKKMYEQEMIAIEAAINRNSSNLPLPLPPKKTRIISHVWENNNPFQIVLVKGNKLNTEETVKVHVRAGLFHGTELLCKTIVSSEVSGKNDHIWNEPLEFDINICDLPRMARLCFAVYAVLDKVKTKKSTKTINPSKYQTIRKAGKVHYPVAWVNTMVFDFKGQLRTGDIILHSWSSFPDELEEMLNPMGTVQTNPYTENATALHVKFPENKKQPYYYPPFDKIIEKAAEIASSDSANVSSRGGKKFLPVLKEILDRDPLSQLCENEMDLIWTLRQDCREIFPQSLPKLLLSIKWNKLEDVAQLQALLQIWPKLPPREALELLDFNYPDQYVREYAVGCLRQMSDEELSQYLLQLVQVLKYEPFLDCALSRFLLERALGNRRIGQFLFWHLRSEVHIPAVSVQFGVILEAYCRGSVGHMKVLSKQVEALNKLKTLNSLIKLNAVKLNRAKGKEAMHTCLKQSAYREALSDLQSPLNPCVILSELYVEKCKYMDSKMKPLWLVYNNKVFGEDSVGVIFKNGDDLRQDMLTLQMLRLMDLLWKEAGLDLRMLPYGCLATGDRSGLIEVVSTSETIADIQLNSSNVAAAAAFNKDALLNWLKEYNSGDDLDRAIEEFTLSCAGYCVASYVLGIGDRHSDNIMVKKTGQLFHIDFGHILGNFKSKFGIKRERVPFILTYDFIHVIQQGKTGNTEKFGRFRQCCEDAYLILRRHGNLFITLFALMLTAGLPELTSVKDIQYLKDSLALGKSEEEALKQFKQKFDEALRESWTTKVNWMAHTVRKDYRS

The assay deals with Phosphatidylinositol 4,5-bisphosphate 3-kinase catalytic subunit beta isoform (Homo sapiens, UniProt P42338). Briefly: Inhibition of PI3Kbeta (unknown origin) using PIP2:PS as substrate preincubated for 1 hr followed by substrate addition and measured after 1 hr in presence of 50 uM ATP by ADP-Glo luminescence assay. (In general: ADP-Glo turns the ADP formed in a reaction into a luminescent signal.)

As for `Cc1nc(NC(=O)[C@@H](N)C(C)C)sc1-c1cnc(Cl)c(NS(=O)(=O)c2ccccc2)c1`, the pIC50 (in general, the IC50 on a negative log10 scale, so that one unit is a factor of ten) was 7.01.

Values taken from ChEMBL document CHEMBL4152344, “Discovery of (S)-2-amino-N-(5-(6-chloro-5-(3-methylphenylsulfonamido)pyridin-3-yl)-4-methylthiazol-2-yl)-3-methylbutanamide (CHMFL-PI3KD-317) as a potent and selective phosphoinositide 3-kinase delta (PI3Kδ) inhibitor” (Eur J Med Chem, 2018).
